This series is classed as in vivo. Particulars: both, human, plasma, oral, 15 mg.

SMILES strings stand for the structures.

As for `CC[C@@H]1CN(C(=O)NCC(F)(F)F)C[C@@H]1c1cnc2cnc3[nH]ccc3n12` [Upadacitinib], the half-life (in general, how long it takes for the measured level to halve) was 10.4 ± 11.2 h.

The values above are taken from publication PMC6590375 (Journal of Clinical Pharmacology, 2019).
